These are literature values, as cited in patent US6803479B2, “Reagents and method for spatio-temporal control of gene expression by illumination” (University of Maryland Biotechnology Institute, priority 2001, dated 2004).

Series [1] addresses T1, human progesterone receptor with a C-terminal 42-aa deletion (Homo sapiens, UniProt P06401).
T1 sequence (P06401 1-891 limits assumed): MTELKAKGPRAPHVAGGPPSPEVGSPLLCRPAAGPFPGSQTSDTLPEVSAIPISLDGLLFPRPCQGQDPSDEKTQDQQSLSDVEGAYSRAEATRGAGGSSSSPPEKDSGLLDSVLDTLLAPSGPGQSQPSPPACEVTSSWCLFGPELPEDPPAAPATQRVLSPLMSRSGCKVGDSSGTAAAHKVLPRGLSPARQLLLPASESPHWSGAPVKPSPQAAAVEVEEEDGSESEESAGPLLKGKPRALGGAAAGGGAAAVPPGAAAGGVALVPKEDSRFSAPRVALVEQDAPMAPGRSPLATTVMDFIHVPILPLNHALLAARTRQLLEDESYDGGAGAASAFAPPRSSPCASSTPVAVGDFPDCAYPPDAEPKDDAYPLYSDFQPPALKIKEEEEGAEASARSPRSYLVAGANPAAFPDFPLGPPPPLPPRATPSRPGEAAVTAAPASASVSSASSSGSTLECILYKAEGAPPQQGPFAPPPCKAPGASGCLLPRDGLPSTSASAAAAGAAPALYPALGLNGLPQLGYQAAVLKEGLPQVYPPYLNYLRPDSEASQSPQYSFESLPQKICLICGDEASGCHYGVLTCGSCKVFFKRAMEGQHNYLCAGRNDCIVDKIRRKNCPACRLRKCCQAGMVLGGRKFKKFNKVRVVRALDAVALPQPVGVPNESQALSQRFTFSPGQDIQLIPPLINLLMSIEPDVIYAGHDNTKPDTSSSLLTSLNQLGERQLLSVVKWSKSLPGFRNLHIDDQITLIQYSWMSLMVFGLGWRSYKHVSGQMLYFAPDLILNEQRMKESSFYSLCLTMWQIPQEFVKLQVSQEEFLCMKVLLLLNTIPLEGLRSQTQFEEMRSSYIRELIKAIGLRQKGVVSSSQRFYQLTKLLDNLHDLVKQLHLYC
To be noted: cited from earlier work.

Series [2] has as its target T2, chimeric transactivator (mutant progesterone receptor ligand binding domain-GAL4-VP16) (Homo sapiens, UniProt P06401). As to conditions: in vitro; cited from earlier work.
Series [3] concerns the target T2, chimeric transactivator (mutant progesterone receptor ligand binding domain-GAL4-VP16). To be noted: transgenic mice, single intraperitoneal injection of suspension in oil at 250 μg/kg body weight; cited from earlier work.

For the compound `CC#C[C@]1(O)CC[C@H]2[C@@H]3CCC4=CC(=O)CCC4=C3[C@@H](c3ccc(N(C)C)cc3)C[C@@]21C` [mifepristone], in series [1], the “affinity for the truncated receptor” value is reported as “high affinity binding”. Also, the “concentrations inducing transcription of transgenes” value in series [2] was “a few nanomolar”. In series [3], the “elevation of transgene expression” value is listed as 1500 fold.
In the case of `CC(=O)[C@H]1CC[C@H]2[C@@H]3CCC4=CC(=O)CC[C@]4(C)[C@H]3CC[C@]12C` [progesterone], the “affinity for the truncated receptor” value in series [1] is “no affinity”.
